Measured values taken from article PMC11053023, “Mechanism of Ψ-Pro/C-degron recognition by the CRL2^FEM1B ubiquitin ligase” (Nature Communications, 2024).
Blank lines part the entries; values can stand above or below the substance they belong to.

Assays:
[1] = biological target: FEM1B-EB-EC complex with the FEM1B D356A/V391A/Q394A/F501A/H502A mutant (human) (UniProt Q9UK73); experiment: ITC; peptides (0.5-1 mM) titrated into 50 μM protein in the cell, 25 °C; 20 mM Tris, 200 mM NaCl, pH 7.5, 1 mM EDTA; one-site binding model
[2] = biological target: FEM1B-EB-EC ternary complex (human) (UniProt Q9UK73); experiment: as above
[3] = biological target: FEM1B-elongin B-elongin C ternary complex, wild type (human) (UniProt Q9UK73); experiment: ITC; SUMO fusion peptides (0.5-1 mM) titrated into 50 μM FEM1B-EB-EC in the cell, 25 °C, 20 mM Tris, 200 mM NaCl, pH 7.5, 1 mM EDTA; one-site binding model
[4] = biological target: FEM1B-EB-EC complex with the FEM1B F549D/V584D/I587D/L588D mutant (human) (UniProt Q9UK73); experiment: ITC; peptides (0.5-1 mM) titrated into 50 μM protein in the cell, 25 °C; 20 mM Tris, 200 mM NaCl, pH 7.5, 1 mM EDTA; one-site binding model
[5] = biological target: FEM1B-EB-EC ternary complex with FEM1B D356A/V391A/Q394A/F501A/H502A (human) (UniProt Q9UK73); experiment: ITC; SUMO fusion peptides (0.5-1 mM) titrated into 50 μM FEM1B-EB-EC in the cell, 25 °C, 20 mM Tris, 200 mM NaCl, pH 7.5, 1 mM EDTA; one-site binding model
[6] = biological target: FEM1B-EB-EC ternary complex with FEM1B F549D/V584D/I587D/L588D (human) (UniProt Q9UK73); experiment: as above

Substance: SUMO-(GGGS)2-CCDC89 352-374 (H-21L) (peptide)
- stoichiometry N [3]: 1

Substance: CUX1 C-degron L-3A, SUMO fusion (peptide)
- Kd [2]: 8.5 µM

Substance: SUMO-(GGGS)2-PSMB5 241-263 (P-1A) (peptide)
- Kd [3]: 10.6 µM
- stoichiometry N [3]: 0.5

Substance: CCDC89 C-degron P-1R, SUMO fusion (peptide)
- Kd [2]: 1.9 µM

Substance: SUMO-(GGGS)2-CUX1 656-678 (L-3A) (peptide)
- stoichiometry N [3]: 0.22

Substance: SUMO-(GGGS)2-CUX1 656-678 (W-2A) (peptide)
- stoichiometry N [3]: 0.42

Substance: SUMO-(GGGS)2-CCDC89 352-374 (H-21A) (peptide)
- stoichiometry N [3]: 1

Substance: SUMO-(GGGS)2-CCDC89 352-374 Δ9 (peptide)
- stoichiometry N [3]: 0.6

Substance: SUMO-(GGGS)2-CCDC89 352-374 (P-1A) (peptide)
- Kd [3]: > 46 µM
- stoichiometry N [3]: 0.6

Substance: SUMO-(GGGS)2-CCDC89 352-374 Δ5 (peptide)
- Kd [3]: 2.1 µM
- stoichiometry N [3]: 0.42

Substance: SUMO-(GGGS)2-CUX1 656-678 (Q-1A) (peptide)
- Kd [3]: 2.6 µM
- stoichiometry N [3]: 0.4

Further lines, results first:

- Kd [1]: 7.8 to 8.8 µM
Substance: both C-degrons (CDK5R1, 23 aa and 10 aa)

- Kd [2]: 1.4 to 6.8 µM
Substance: the five C-degrons (CCDC89, PSMB5, BEX2, CUX1 and MCRIP1)

- Kd [2]: 5.2 µM
Substance: CUX1 C-degron W-2A, SUMO fusion (peptide)

- Kd [3]: 6.7 µM
- stoichiometry N [3]: 0.43
Substance: SUMO-(GGGS)2-CCDC89 352-374 (P-1L) (peptide)

- stoichiometry N [3]: 0.72
Substance: SUMO-(GGGS)2-CUX1 656-678 (F-22A) (peptide)

- stoichiometry N [3]: 0.76
Substance: SUMO-(GGGS)2-CCDC89 352-374 Δ7 (peptide)

- Kd [3]: 1.1 µM
- stoichiometry N [3]: 0.37
Substance: SUMO-(GGGS)2-CCDC89 352-374 Δ3 (peptide)

- stoichiometry N [3]: 0.57
Substance: SUMO-(GGGS)2-CCDC89 352-374 (P-1R) (peptide)

- Kd [1]: > 50 µM
- Kd [4]: 2.6 µM
- Kd [2]: 2.2 µM
Substance: CCDC89 C-degron (C-term 23-mer), SUMO fusion (peptide)

- Kd [3]: 6.7 µM
- stoichiometry N [3]: 0.64
Substance: SUMO-(GGGS)2-CCDC89 352-374 (P-1Q) (peptide)

- fold reduction of binding against the WT PSMB5 C-degron [2]: 4.8 fold
Substance: PSMB5 C-degron P-1A, SUMO fusion (peptide)

- Kd [2]: 8 µM
Substance: CCDC89 C-degron variant with deletion of seven residues in the linker region (peptide)

- stoichiometry N [5]: 0.63
- stoichiometry N [6]: 0.66
- stoichiometry N [3]: 0.58
Substance: SUMO-(GGGS)2-CCDC89 352-374 WT (peptide)

- Kd [2]: 6.7 to 46 µM
Substance: the P-1A, P-1Q, and P-1L substitutions (CCDC89 C-degron)
